Results reported in US8541404B2, “Inhibitors of the human aldosterone synthase CYP11B2” (ElexoPharm GmbH, priority 2009, dated 2013).
Read-outs that look alike come from different tables or passages of the source.

Biological target: T1, human aldosterone synthase (CYP11B2) (Homo sapiens, UniProt P19099)
T1 construct: expressed in transfected cells; host or cells: V79 MZh11B2 (V79 Chinese hamster cells)
T1 sequence (P19099 25-503): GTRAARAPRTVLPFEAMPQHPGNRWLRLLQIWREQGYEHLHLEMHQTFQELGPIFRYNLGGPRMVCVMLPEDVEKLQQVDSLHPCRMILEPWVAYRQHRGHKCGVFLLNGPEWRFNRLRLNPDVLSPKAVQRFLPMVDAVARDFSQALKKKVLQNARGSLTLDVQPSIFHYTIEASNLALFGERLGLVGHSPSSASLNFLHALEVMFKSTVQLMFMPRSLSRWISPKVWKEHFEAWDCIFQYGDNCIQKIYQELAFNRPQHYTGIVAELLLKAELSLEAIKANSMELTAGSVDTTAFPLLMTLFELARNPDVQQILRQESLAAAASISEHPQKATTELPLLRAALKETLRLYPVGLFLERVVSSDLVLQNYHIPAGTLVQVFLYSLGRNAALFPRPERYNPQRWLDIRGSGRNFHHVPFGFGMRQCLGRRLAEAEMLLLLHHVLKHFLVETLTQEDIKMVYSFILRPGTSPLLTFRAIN
Assay: Test for CYP11B2 inhibitors in V79 MZh11B2 cells (test system B)
Format: cell-based
Conditions: V79MZh11B2, percentage inhibition, inhibitor concentration 0.5 μM, read-out: % (0.5 μM) hCYP11B2

[1] = Table 1, test system B (V79 MZh11B2)

inhibition at 0.5 µM [1]	inhibition at 0.5 µM (Table 2, test system B)	Compound
88%		O=C1CCc2cc(-c3cccnc3)ccc2N1 [Example 1, 6-Pyridin-3-yl-3,4-dihydro-1H-quinolin-2-one]
93%		CCN1C(=O)CCc2cc(-c3cccnc3)ccc21 [Example 9, 1-Ethyl-6-pyridin-3-yl-3,4-dihydro-1H-quinolin-2-one]
97%		O=C1CCc2cc(-c3cccnc3)cc(Cl)c2N1 [Example 12, 8-Chloro-6-pyridin-3-yl-3,4-dihydro-1H-quinolin-2-one]
	92%	O=C1CSc2cc(-c3cccnc3)ccc2N1 [Example 14, 7-Pyridin-3-yl-4H-benzo[1,4]thiazin-3-one]
